We go through 9 compounds from patent US10071995B2, “Substituted oxopyridine derivatives” (BAYER PHARMA AKTIENGESELLSCHAFT, priority 2014, dated 2018).

The chains behind the UniProt entries cited, without tags or fusion partners. Residues count along the entry.
UniProt P03952, 20-390 partner: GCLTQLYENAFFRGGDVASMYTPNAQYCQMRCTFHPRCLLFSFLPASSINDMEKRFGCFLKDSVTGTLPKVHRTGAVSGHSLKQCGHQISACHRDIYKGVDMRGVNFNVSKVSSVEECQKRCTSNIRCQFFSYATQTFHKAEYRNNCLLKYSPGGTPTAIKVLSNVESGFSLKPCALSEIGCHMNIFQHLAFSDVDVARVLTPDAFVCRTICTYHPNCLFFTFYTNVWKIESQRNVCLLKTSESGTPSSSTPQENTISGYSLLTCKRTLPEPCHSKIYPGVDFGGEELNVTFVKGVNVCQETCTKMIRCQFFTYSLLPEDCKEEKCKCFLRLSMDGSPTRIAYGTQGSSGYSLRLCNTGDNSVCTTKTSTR
UniProt P03952, 391-638: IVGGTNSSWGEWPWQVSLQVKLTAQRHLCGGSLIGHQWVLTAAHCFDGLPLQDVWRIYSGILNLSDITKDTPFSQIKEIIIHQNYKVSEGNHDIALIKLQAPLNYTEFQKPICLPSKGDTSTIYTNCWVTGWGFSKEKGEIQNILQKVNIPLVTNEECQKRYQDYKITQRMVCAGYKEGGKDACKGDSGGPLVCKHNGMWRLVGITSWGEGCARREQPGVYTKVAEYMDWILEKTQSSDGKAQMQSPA
UniProt P03951, 19-387 partner: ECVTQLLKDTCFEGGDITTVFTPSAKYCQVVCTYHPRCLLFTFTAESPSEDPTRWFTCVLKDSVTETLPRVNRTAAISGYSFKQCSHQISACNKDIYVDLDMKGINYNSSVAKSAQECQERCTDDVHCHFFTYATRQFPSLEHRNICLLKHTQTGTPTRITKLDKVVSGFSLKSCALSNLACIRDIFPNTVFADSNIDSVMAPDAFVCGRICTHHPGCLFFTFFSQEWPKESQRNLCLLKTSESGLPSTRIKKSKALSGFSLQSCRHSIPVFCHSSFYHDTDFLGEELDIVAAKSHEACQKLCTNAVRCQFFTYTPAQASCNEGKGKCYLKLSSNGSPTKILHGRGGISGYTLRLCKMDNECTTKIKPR
UniProt P03951, 388-625: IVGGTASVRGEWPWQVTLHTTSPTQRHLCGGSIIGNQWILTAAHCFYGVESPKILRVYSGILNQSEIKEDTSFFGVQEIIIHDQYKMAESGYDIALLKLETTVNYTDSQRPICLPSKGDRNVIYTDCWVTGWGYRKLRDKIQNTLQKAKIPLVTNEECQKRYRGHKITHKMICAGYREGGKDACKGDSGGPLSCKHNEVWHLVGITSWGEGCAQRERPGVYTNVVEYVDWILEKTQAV

For experiment [1], the target named is human plasma kallikrein (Homo sapiens (Human), UniProt P03952). Briefly: Determination of the plasma kallikrein activity (fluorogenic peptide substrate). Conditions: plasma kallikrein from Kordia, substrate H-Pro-Phe-Arg-AMC, 22° C., 30 min. The format is biochemical. Here is the method:
To determine the plasma kallikrein inhibition of the substances according to the invention, a biochemical test system is used which utilizes the reaction of a peptidic plasma kallikrein substrate to determine the enzymatic activity of human plasma kallikrein. Here, plasma kallikrein cleaves from the peptic plasma kallikrein substrate the C-terminal aminomethylcoumarin (AMC), the fluorescence of which is measured. The determinations are carried out in microtitre plates.
Test substances are dissolved in dimethyl sulphoxide and serially diluted in dimethyl sulphoxide (3000 μM to 0.0078 μM; resulting final concentrations in the test: 50 μM to 0.00013 μM). 1 μl of the diluted substance solutions is placed into each of the wells of white microtitre plates from Greiner (384 wells). 20 μl of assay buffer (50 mM Tris/HCl pH 7.4; 100 mM sodium chloride solution; 5 mM of calcium chloride solution; 0.1% of bovine serum albumin) and 20 μl of plasma kallikrein from Kordia (0.6 nM in assay buffer) are then added successively. After 15 min of incubation, the enzyme reaction is started by addition of 20 μl of the substrate H-Pro-Phe-Arg-AMC dissolved in assay buffer (10 μM in assay buffer) from Bachem, the mixture is incubated at room temperature (22° C.) for 30 min and fluorescence is then measured (excitation: 360 nm, emission: 460 nm). The measured emissions of the test batches with test substance are compared to those of control batches without test substance (only dimethyl sulphoxide instead of test substance in dimethyl sulphoxide), and IC50 values are calculated from the concentration/activity relationships.

The target of experiment [2] is human factor XIa (Homo sapiens (Human), UniProt P03951). Briefly: Measurement of FXIa inhibition (fluorogenic peptide substrate). Conditions: factor XIa from Kordia, substrate Boc-Glu(OBzl)-Ala-Arg-AMC, 22° C., 30 min. Type of experiment: biochemical. Here is the method:
The factor XIa inhibition of the substances according to the invention is determined using a biochemical test system which utilizes the reaction of a peptidic factor XIa substrate to determine the enzymatic activity of human factor XIa. Here, factor XIa cleaves from the peptic factor XIa substrate the C-terminal aminomethylcoumarin (AMC), the fluorescence of which is measured. The determinations are carried out in microtitre plates.
Test substances are dissolved in dimethyl sulphoxide and serially diluted in dimethyl sulphoxide (3000 μM to 0.0078 μM; resulting final concentrations in the test: 50 μM to 0.00013 μM). 1 μl of the diluted substance solutions is placed into each of the wells of white microtitre plates from Greiner (384 wells). 20 μl of assay buffer (50 mM of Tris/HCl pH 7.4; 100 mM of sodium chloride; 5 mM of calcium chloride; 0.1% of bovine serum albumin) and 20 μl of factor XIa from Kordia (0.45 nM in assay buffer) are then added successively. After 15 min of incubation, the enzyme reaction is started by addition of 20 μl of the factor XIa substrate Boc-Glu(OBzl)-Ala-Arg-AMC dissolved in assay buffer (10 μM in assay buffer) from Bachem, the mixture is incubated at room temperature (22° C.) for 30 min and fluorescence is then measured (excitation: 360 nm, emission: 460 nm). The measured emissions of the test batches with test substance are compared to those of control batches without test substance (only dimethyl sulphoxide instead of test substance in dimethyl sulphoxide), and IC50 values are calculated from the concentration/activity relationships.

On to `COc1cn(C(Cc2cccnc2)C(=O)Nc2cc(F)c(C(N)=O)s2)c(=O)cc1-c1cc(Cl)ccc1C#N` (racemic) [Example 5, 5-({2-[4-(5-Chloro-2-cyanophenyl)-5-methoxy-2-oxopyridin-1(2H)-yl]-3-(pyridin-3-yl)propanoyl}-amino)-3-fluorothiophene-2-carboxamide (racemate)], for which the IC50 in experiment [1] was found to be 38 nM; in experiment [2] it was 42 nM. On to `CNC(=O)c1ccc(NC(=O)C(CCOC)n2cc(OC)c(-c3cc(Cl)ccc3C#N)cc2=O)s1` (racemic) [Example 11, 5-({2-[4-(5-Chloro-2-cyanophenyl)-5-methoxy-2-oxopyridin-1(2H)-yl]-4-methoxybutanoyl}amino)-N-methylthiophene-2-carboxamide (racemate)], for which the IC50 was 2.7 nM in experiment [1] and 4.6 nM in experiment [2]. In experiment [1], `COc1cn(C(Cc2ccccn2)C(=O)Nc2cc(F)c(C(N)=O)s2)c(=O)cc1-c1cc(Cl)ccc1C#N` (racemic) [Example 3, 5-({2-[4-(5-Chloro-2-cyanophenyl)-5-methoxy-2-oxopyridin-1(2H)-yl]-3-(pyridin-2-yl)propanoyl}-amino)-3-fluorothiophene-2-carboxamide (racemate)] showed an IC50 of 68 nM.

In experiment [1], `COCCC(C(=O)Nc1ccc(C(=O)O)s1)n1cc(OC)c(-c2cc(Cl)ccc2C#N)cc1=O` (racemic) [Example 7, 5-({2-[4-(5-Chloro-2-cyanophenyl)-5-methoxy-2-oxopyridin-1(2H)-yl]-4-methoxybutanoyl}amino)-thiophene-2-carboxylic acid (racemate)] had an IC50 of 7.6 nM. In turn, `COc1cn(C(Cc2ccccn2)C(=O)Nc2ccc(C(=O)O)s2)c(=O)cc1-c1cc(Cl)ccc1C#N` (racemic) [Example 18, 5-({2-[4-(5-Chloro-2-cyanophenyl)-5-methoxy-2-oxopyridin-1(2H)-yl]-3-(pyridin-2-yl)propanoyl}-amino)thiophene-2-carboxylic acid (racemate)] returned an IC50 in experiment [1] of 6 nM. As to `COCCC(C(=O)Nc1ccc(C(N)=O)s1)n1cc(OC)c(-c2cc(Cl)ccc2C#N)cc1=O` (racemic) [Example 1, 5-({2-[4-(5-Chloro-2-cyanophenyl)-5-methoxy-2-oxopyridin-1(2H)-yl]-4-methoxybutanoyl}amino)-thiophene-2-carboxamide (racemate)], the IC50 in experiment [1] is 3 nM; in experiment [2] it was 7 nM.

In the case of `CNC(=O)c1ccc(NC(=O)C(CCOC)n2cc(OC)c(-c3cc(Cl)ccc3C#N)cc2=O)s1` (single isomer, unassigned; enantiomer 1) [Example 12, 5-({2-[4-(5-Chloro-2-cyanophenyl)-5-methoxy-2-oxopyridin-1(2H)-yl]-4-methoxybutanoyl}amino)-N-methylthiophene-2-carboxamide (enantiomer 1)], the figures for the IC50 in experiment [1] and in experiment [2] were 1.7 nM and 2.5 nM, respectively. For `CNC(=O)c1ccc(NC(=O)C(Cc2cnco2)n2cc(OC)c(-c3cc(Cl)ccc3C#N)cc2=O)s1` (racemic) [Example 17, 5-({2-[4-(5-Chloro-2-cyanophenyl)-5-methoxy-2-oxopyridin-1(2H)-yl]-3-(1,3-oxazol-5-yl)-propanoyl}amino)-N-methylthiophene-2-carboxamide (racemate)], the IC50 in experiment [1] amounted to 2.7 nM. `COc1cn(C(Cc2ccn(C)n2)C(=O)Nc2ccc(C(N)=O)s2)c(=O)cc1-c1cc(Cl)ccc1C#N` (racemic) [Example 13, 5-({2-[4-(5-Chloro-2-cyanophenyl)-5-methoxy-2-oxopyridin-1(2H)-yl]-3-(1-methyl-1H-pyrazol-3-yl)propanoyl}amino)thiophene-2-carboxamide (racemate)]: in experiment [2], it took 4.1 nM to reach half-maximal inhibition (IC50).

As a reminder, the IC50 is the concentration that gives 50% inhibition. A high value points to lower potency.
